Values of other authors, collected in patent US4866036A, “Dipeptidyl 5-0,6-0-acyl-2-amino-2-deoxy-D-glucofuranose compositions and methods of use in aids-immunocompromised human hosts” (priority 1987, dated 1989).

Conditions: human, in vivo

In the case of “IL-2: Protein made by white blood cells that mediates production of interferon”, the “clinical effect in AIDS or ARC patients” value is given as “not encouraging”.
